Tested on: BT474 cells
Test: In vitro cytotoxicity (alamarBlue)
Type: cell-based, human
Settings: BT474, 48 h
Description: In Vitro Cytotoxicity Assays BT474 cells (7000 cells/well) were seeded in 96-well black plates and incubated overnight for cell adherence. Then, 100 μL of normal or pH 6.5 medium with different concentrations of mPEG-PLL/CDA, PLL22-Gua and Gua-NPs were replaced into the plates. After 48 h of incubation, the medium was removed, and alamarBlue cell viability reagent was added. After another 4 h of incubation in 37° C., the color change and increased fluorescence can be detected using a microplate reader (excitation: 530-560 nm; emission: 590 nm). And the cell viability was calculated according to the following equation: Isample and Icontrol represent the fluorescent intensity of treated cells and untreated cell, respectively. Ibackground represents the fluorescent intensity of the well without cells. The data are presented as the average±SD (n=6). In addition, the cellular cytotoxicity of mPEG-PLL/CDA, and PLL22-Gua were also validated by alamarBlue assay in similar method.

## methoxy poly(ethylene glycol)-b-poly(L-lysine) [mPEG-b-PLL]
  cytotoxicity (in words): showed cytotoxicity
